Data reported in patent US12286657B2, “Methods and compositions” (United Kingdom Research and Innovation, priority 2018, dated 2025).

Sequences of proteins named here, by UniProt entry; tags and fusion partners are left off.
UniProt Q6WRH6, whole entry Y271C/N311Q/Y349F/V366C, looked up: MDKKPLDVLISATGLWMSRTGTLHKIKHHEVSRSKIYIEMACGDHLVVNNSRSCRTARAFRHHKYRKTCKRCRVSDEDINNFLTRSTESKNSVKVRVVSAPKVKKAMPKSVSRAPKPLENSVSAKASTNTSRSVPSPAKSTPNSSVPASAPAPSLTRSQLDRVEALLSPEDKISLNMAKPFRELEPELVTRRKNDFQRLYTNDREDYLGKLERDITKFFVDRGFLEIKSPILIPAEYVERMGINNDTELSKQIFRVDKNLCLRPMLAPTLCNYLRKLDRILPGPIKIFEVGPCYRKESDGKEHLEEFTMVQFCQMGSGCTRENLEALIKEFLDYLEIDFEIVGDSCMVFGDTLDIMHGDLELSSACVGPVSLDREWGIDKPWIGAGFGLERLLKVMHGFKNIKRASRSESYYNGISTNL

Assays:
DAPRS/tRNAPylCUA pair = DAPRS/tRNAPylCUA pair (Methanosarcina barkeri, UniProt Q6WRH6, N311Q/V366C/Y271C/Y349F); experiment: sfGFP(150TAG)His6 expression with DAPRS/tRNAPylCUA; type: cell-based, E. coli; settings: sfGFP(150TAG)His6, 1 mM amino acid, versus BocK with PylRS/tRNAPylCUA
DAPRS/tRNACUA pair = DAPRS/tRNACUA pair (Methanosarcina barkeri, UniProt Q6WRH6, N311Q/V366C/Y271C/Y349F); experiment: phenotyping of DAPRS/tRNACUA pair with cat(112TAG) reporter on chloramphenicol; type: cell-based, E. coli; settings: in the presence of 6

SMILES: CC(SCCOC(=O)NC[C@H](N)C(=O)O)c1cc2c(cc1[N+](=O)[O-])OCO2 (mixture of isomers) [Compound 6]
- yield of GFP incorporating the amino acid (DAPRS/tRNAPylCUA pair): comparable
- chloramphenicol resistance conferred by selected clone (DAPRS/tRNACUA pair): high levels of chloramphenicol resistance
